To fix the notation:
B1: LC A032D/HC Y052K conditionally active anti-HER2 antibody (antibody, V domains shown)
VH: [about 120 residues with changes not printed]
VL: DIQMTQSPSSLSASVGDRVTITCRASQDVNTDVAWYQQKPGKAPKLLIYSASFLYSGVPSRFSGSRSGTDFTLTISSLQPEDFATYYCQQHYTTPPTFGQGTKVEIK
notes: also called BA-130-03-02
B2: LC-A032D / HC-N028W conditionally active anti-HER2 antibody (antibody, V domains shown)
VH: [about 120 residues with changes not printed]
VL: B1 VL
B3: LC-A032D / HC-N055A conditionally active anti-HER2 antibody (antibody, V domains shown)
VH: [about 120 residues with changes not printed]
VL: B1 VL
B4: LC A032D/HC S119E conditionally active anti-HER2 antibody (antibody, V domains shown)
VH: [about 120 residues with changes not printed]
VL: B1 VL
notes: also called BA-130-03-08
B5: LC-A032D / HC-Y052O conditionally active anti-HER2 antibody (antibody, V domains shown)
VH: [about 120 residues with changes not printed]
VL: B1 VL
B6: LC A032D/HC G056K conditionally active anti-HER2 antibody (antibody, V domains shown)
VH: [about 120 residues with changes not printed]
VL: B1 VL
notes: also called BA-130-03-05
B7: LC A032D/HC T058D conditionally active anti-HER2 antibody (antibody, V domains shown)
VH: [about 120 residues with changes not printed]
VL: B1 VL
notes: also called BA-130-03-06

In this assay the target is T1, recombinant human HER2 antigen (human, UniProt P04626, in part).
T1 construct: also called human HER2 protein
The assay can be described thus: pH range ELISA on coated recombinant human HER2, antibody 100 ng/mL, pH 5.0-7.4; pH of 50% binding (binding at pH 6.0 = 100%). In general terms: An ELISA detects its analyte on a solid surface through an enzyme-linked reagent.
For the molecule B1, the pH inflection point stood at 6.22 pH.

Turning to B2, the pH inflection point came out at 6.05 pH.

Consider B3, for which the pH inflection point worked out at 6.3 pH.

Turning to B4, the pH inflection point is 6.22 pH.

As for B5, the pH inflection point was 6.13 pH.

B6: the pH inflection point turned out to be 6.23 pH.

As to B7, the pH inflection point worked out at 5.45 pH.

For the origin of these results see patent publication US20230109218A1 (BIOATLA, published 2023).
